The target of one test is T1, DRB10404 (DR4w14) (Homo sapiens, UniProt P01903+P01911, A100R/A169T/F76Y/I96L/K127E/L162R/M171V/N62H/P40V/Q125Y/R42H/S133A/S149N/S66Y/V209L/W38E).
T1 construct: used as sources of human HLA class II molecules; endogenous in cells; host or cells: BIN40 (EBV-transformed homozygous B cell line)
The test can be described thus: Class II peptide-binding assay, DR4w14.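 Note: unlabeled peptides compete with a radiolabeled probe for binding to affinity-purified HLA-DR, neutral pH, class II amount titrated to bind a small fraction of label, IC50 approximates Kd.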

Amino acid sequences for entries named in this document (tags omitted). Residues count along the entry.
UniProt Q30154, 30-266: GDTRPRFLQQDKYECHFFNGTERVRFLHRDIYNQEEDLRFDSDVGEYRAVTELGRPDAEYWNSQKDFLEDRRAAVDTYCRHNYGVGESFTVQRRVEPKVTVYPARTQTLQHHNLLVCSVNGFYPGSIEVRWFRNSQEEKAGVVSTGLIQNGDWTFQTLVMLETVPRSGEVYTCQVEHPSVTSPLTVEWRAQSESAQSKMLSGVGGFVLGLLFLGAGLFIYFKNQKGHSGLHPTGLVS

In a further test the target is T2, DRB1*0401 (DR4w4) (Homo sapiens, UniProt P01903+P01911, A100K/A169T/F76Y/I96L/K127E/L162R/M171V/N62H/P40V/Q125Y/R42H/S133A/S149N/S66Y/V115G/V209L/W38E).
T2 construct: used as sources of human HLA class II molecules; endogenous in cells; host or cells: PREISS (EBV-transformed homozygous B cell line)
The test can be described thus: Class II peptide-binding assay, DR4w4.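 Note: unlabeled test peptides compete with a radiolabeled probe peptide for binding to affinity-purified HLA-DR, with DR amount titrated to capture a small fraction of label, IC50 approximating Kd.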 The settings on record: read-out: DR4w4 nM (In IC50 Format); purified HLA DR4w4.

A further test addresses T3, DRB1*1101 (DR5w11) (Homo sapiens, UniProt P01903+P01911, A100R/A169T/A87E/I96F/K41T/L162R/M171V/P40S/Q125H/Q178H/Q39Y/Q99D/R42S/S66Y/T262R/V115G/W38E).
T3 construct: used as sources of human HLA class II molecules; endogenous in cells; host or cells: SWEIG (EBV-transformed homozygous B cell line)
The test can be described thus: Class II peptide-binding assay, DR5w11.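 Note: competition by unlabeled test peptide against iodinated probe peptide binding to affinity-purified HLA-DR, class II amount titrated beforehand, half-maximal inhibitory concentration read as approximate Kd.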

In a further test the target is T4, DRB5*0101 (DR2w2a) (Homo sapiens, UniProt P01903+Q30154).
T4 construct: used as sources of human HLA class II molecules; endogenous in cells; host or cells: GM3107 (EBV-transformed homozygous B cell line)
The test can be described thus: Class II peptide-binding assay, DR2w2a (DR2w2B2).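 Note: competitive binding assay: unlabeled peptide inhibiting binding of a radiolabeled probe peptide to purified DR molecules at pH 7.0, IC50 approximating Kd, lower means stronger binding.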

The target of a further test is DRB1*0701 (DR7) (Homo sapiens, UniProt P01903+P01911, A100R/A102G/A103Q/D57E/D86V/E43K/F76Y/K127E/L162R/M171V/P40G/Q125H/Q99D/R33Q/R42Y/R54Q/S133A/S66F/T210M/V115G/Y107V/Y59L/Y89S). The test can be described thus: Class II peptide-binding assay, DR7.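 Note: unlabeled peptides compete with an iodinated probe peptide for binding to affinity-purified HLA-DR at neutral pH, DR amount titered to bind a small tracer fraction, IC50 approximating Kd.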 Conditions: Table VIII.
For the next test, the target named is T5, DRB1*1501 (DR2w2b) (Homo sapiens, UniProt P01903+P01911).
T5 construct: expressed in transfected cells; host or cells: L466.1 transfected fibroblasts
The test is described as follows: Class II peptide-binding assay, DR2w2b (DR2w2B1). The settings on record: read-out: In IC50 Format DR2w2β1; Table VIII.

Setting [1] is: read-out: DR4w14 nM (In IC50 Format), purified HLA DR4w14.
The mark [2] stands for this setting: read-out: DR5w11 nM (In IC50 Format), purified HLA DR5w11.

Read-outs that look alike come from different tables or passages of the source.

On to `CC(C)C[C@H](NC(=O)[C@H](Cc1ccc(O)cc1)NC(=O)[C@H](CCCCN)NC(=O)[C@H](CO)NC(=O)[C@H](CCCNC(=N)N)NC(=O)[C@H](CCC(N)=O)NC(=O)[C@H](CO)NC(=O)[C@@H]1CCCN1C(=O)[C@H](CCCNC(=N)N)NC(=O)[C@H](CCCCN)NC(=O)[C@H](CCC(N)=O)NC(=O)[C@H](CO)NC(=O)[C@H](C)N)C(=O)N[C@@H](C)C(=O)N[C@H](C(=O)N[C@@H](C)C(=O)N[C@@H](CO)C(=O)N[C@H](C(=O)O)[C@@H](C)O)[C@@H](C)O` [Peptide 765.011], for which the IC50 on DRB10404 (DR4w14) (setting [1]) is 2630 nM. As for `CC(C)C[C@H](NC(=O)[C@@H](NC(=O)[C@@H](NC(=O)[C@H](CCC(N)=O)NC(=O)[C@H](Cc1ccccc1)NC(=O)[C@H](CCC(N)=O)NC(=O)[C@H](Cc1ccccc1)NC(=O)[C@H](CCCNC(=N)N)NC(=O)[C@H](C)NC(=O)[C@@H](N)Cc1ccc(O)cc1)[C@@H](C)O)[C@@H](C)O)C(=O)N[C@@H](CCCCN)C(=O)N[C@@H](C)C(=O)N[C@@H](CCCCN)C(=O)N[C@H](C(N)=O)[C@@H](C)O` [Peptide 717.46], the IC50 on DRB1*0401 (DR4w4) is 3.5 nM.

Regarding `CC[C@H](C)[C@H](NC(=O)[C@H](CCCCN)NC(=O)[C@H](CC(C)C)NC(=O)[C@@H](NC(=O)[C@@H](NC(=O)[C@H](CCC(N)=O)NC(=O)[C@H](CCCNC(=N)N)NC(=O)[C@H](CCC(N)=O)NC(=O)[C@H](Cc1ccccc1)NC(=O)[C@H](CCCNC(=N)N)NC(=O)[C@H](C)NC(=O)[C@@H](N)Cc1ccc(O)cc1)[C@@H](C)O)[C@@H](C)O)C(=O)N[C@@H](C)C(=O)N[C@H](C(=O)O)[C@@H](C)O` [Peptide 716.01], the IC50 on DRB1*1101 (DR5w11) (setting [2]) worked out at 83.3 nM. `CC[C@H](C)[C@H](NC(=O)CNC(=O)[C@H](CO)NC(=O)[C@H](CC(C)C)NC(=O)[C@H](CC(N)=O)NC(=O)[C@H](C)NC(=O)[C@H](CO)NC(=O)[C@H](CO)NC(=O)[C@H](CO)NC(=O)[C@H](Cc1ccccc1)NC(=O)[C@@H](NC(=O)[C@H](CC(=O)O)NC(=O)[C@@H](NC(=O)[C@@H](NC(=O)CNC(=O)[C@H](CCSC)NC(=O)[C@H](C)NC(=O)[C@H](CCSC)NC(=O)[C@@H](N)CC(C)C)[C@@H](C)CC)[C@@H](C)O)C(C)C)C(=O)O` [Peptide 705.08]: at DRB10404 (DR4w14) (setting [1]), the IC50 turned out to be 114 nM. Consider `CC[C@H](C)[C@H](NC(=O)[C@H](CO)NC(=O)[C@H](CC(=O)O)NC(=O)[C@@H](N)CCC(=O)O)C(=O)N[C@@H](CC(C)C)C(=O)NCC(=O)N[C@@H](CC(=O)O)C(=O)N1CCC[C@H]1C(=O)N[C@@H](CCCCN)C(=O)N[C@@H](CCCCN)C(=O)N[C@@H](CC(C)C)C(=O)N[C@@H](CC(C)C)C(=O)N[C@H](C(=O)N[C@@H](CCC(N)=O)C(=O)N[C@@H](Cc1c[nH]cn1)C(=O)O)[C@@H](C)O` [Peptide 39.0407], for which the IC50 was above 20000 nM at DRB5*0101 (DR2w2a) (read-out: In IC50 Format DR2w2β2, Table VIII); above 25000 nM at DRB1*1101 (DR5w11) (read-out: In IC50 Format DR5w11, Table VIII); above 17900 nM at DRB1*0701 (DR7) (read-out: In IC50 Format DR7); above 15200 nM at DRB1*1501 (DR2w2b). Regarding `CC[C@H](C)[C@H](NC(=O)[C@H](CC(C)C)NC(=O)[C@H](C)NC(=O)[C@@H](N)CC(C)C)C(=O)N[C@@H](Cc1c[nH]cn1)C(=O)N[C@@H](Cc1c[nH]cn1)C(=O)N[C@@H](CC(N)=O)C(=O)N[C@H](C(=O)N[C@@H](Cc1c[nH]cn1)C(=O)N[C@@H](CC(C)C)C(=O)N[C@@H](CS)C(=O)N[C@@H](Cc1ccccc1)C(=O)N[C@H](C(=O)N[C@@H](Cc1c[nH]cn1)C(=O)N[C@H](C(=O)O)[C@@H](C)O)C(C)C)[C@@H](C)O` [Peptide 39.0352], on DRB5*0101 (DR2w2a) (read-out: In IC50 Format DR2w2B2 nM, Table VIII, values in parentheses read as lower bounds), the IC50 was found to be 22200 nM.

GIEVVEVVPISHLYI [Peptide 39.0284]: the IC50 at DRB5*0101 (DR2w2a) (read-out: In IC50 Format DR2w2B2) amounted to 22200 nM. Regarding `CC(C)C[C@H](NC(=O)[C@@H](NC(=O)[C@@H](NC(=O)[C@H](CCC(N)=O)NC(=O)[C@H](CO)NC(=O)[C@H](CCC(N)=O)NC(=O)[C@H](Cc1ccccc1)NC(=O)[C@H](CCCNC(=N)N)NC(=O)[C@H](C)NC(=O)[C@H](N)Cc1ccc(O)cc1)[C@@H](C)O)[C@@H](C)O)C(=O)N[C@@H](CCCCN)C(=O)N[C@@H](C)C(=O)N[C@@H](CCCCN)C(=O)N[C@@H](C(N)=O)[C@H](C)O` [Peptide 858.06], at DRB10404 (DR4w14) (read-out: DR4w14 nM, Table VIII, In IC50 Format), the IC50 amounted to 22.7 nM. On to `CC(C)C[C@H](NC(=O)[C@H](CCCNC(=N)N)NC(=O)[C@H](Cc1ccccc1)NC(=O)CN)C(=O)NCC(=O)N[C@@H](Cc1ccccc1)C(=O)N[C@@H](CC(C)C)C(=O)N[C@@H](Cc1c[nH]cn1)C(=O)N[C@@H](CO)C(=O)NCC(=O)N[C@H](C(=O)N[C@@H](C)C(=O)N[C@@H](CCCCN)C(=O)N[C@@H](CO)C(=O)N[C@H](C(=O)O)C(C)C)[C@@H](C)O` [Peptide 39.0307], for which the IC50 on DRB1*0701 (DR7) (read-out: In IC50 Format DR7 nM, page 2) stood at 69.3 nM.

As for `CC(C)C[C@H](NC(=O)[C@@H](NC(=O)[C@@H](NC(=O)[C@H](CCC(N)=O)NC(=O)[C@H](CO)NC(=O)[C@H](CCC(N)=O)NC(=O)[C@H](Cc1ccccc1)NC(=O)[C@H](CCCNC(=N)N)NC(=O)[C@H](C)NC(=O)[C@@H](N)Cc1ccc(O)cc1)[C@@H](C)O)[C@@H](C)O)C(=O)N[C@@H](CCCCN)C(=O)N[C@@H](C)C(=O)N[C@@H](CCC(=O)O)C(=O)N[C@H](C(N)=O)[C@@H](C)O` [Peptide 717.26], the IC50 at DRB1*1101 (DR5w11) (setting [2]) was 83.3 nM. On to `CC(C)C[C@H](NC(=O)[C@@H](NC(=O)[C@@H](NC(=O)[C@H](CCC(N)=O)NC(=O)[C@H](CO)NC(=O)[C@H](CCC(N)=O)NC(=O)[C@H](Cc1ccccc1)NC(=O)[C@H](CCCNC(=N)N)NC(=O)[C@H](C)NC(=O)[C@@H](N)Cc1ccc(O)cc1)[C@@H](C)O)[C@@H](C)O)C(=O)N[C@@H](CCC(=O)O)C(=O)N[C@@H](C)C(=O)N[C@@H](CCCCN)C(=O)N[C@H](C(N)=O)[C@@H](C)O` [Peptide 717.22], for which the IC50 at DRB10404 (DR4w14) (setting [1]) came out at 22.7 nM.

The values above are taken from EP1388586A2, “Identification of broadly reactive DR restricted epitopes” (priority 1998, dated 1999).
